Laboratory results: PMC3663649, “Nucleosomal DNA binding drives the recognition of H3K36-methylated nucleosomes by the PSIP1-PWWP domain” (Epigenetics & Chromatin, 2013)

Test system: GST-PWWP
Experiment: biotinylated histone H3 peptide pull-down with GST-PWWP lysates
Type: binding, human
Settings: biotinylated H3 peptides, GST-PWWP (or mutant) lysates, anti-GST immunoblot
Protocol: Mono-nucleosomes were extracted from HeLa or yeast cells by MNase treatment of lysed cells as previously described. Histone H3 mutants were selected from a mutant library. GA beads (Sigma-Aldrich, St. Louis, MO) were covered with GST-fusion proteins, mixed with mono-nucleosomes and washed. Eluted proteins were analyzed by immunoblotting. HeLa mono-nucleosomes were incubated with premixed GFP-fusion protein and GFP binder beads (ChromoTek, Planegg-Martinsried, Germany) and analyzed in a similar way. Peptide pull-downs were performed as described previously.

## CC(C)[C@H](NC(=O)CNC(=O)CNC(=O)[C@@H](NC(=O)[C@H](C)NC(=O)[C@@H]1CCCN1C(=O)[C@H](C)NC(=O)[C@@H](N)CO)[C@@H](C)O)C(=O)N[C@@H](CSCC[N+](C)(C)C)C(=O)N[C@@H](CCCCN)C(=O)N1CCC[C@H]1C(=O)N[C@@H](Cc1c[nH]cn1)C(=O)N[C@@H](CCCNC(=N)N)C(=O)N[C@@H](Cc1ccc(O)cc1)C(=O)N[C@@H](CCCNC(=N)N)C(=O)N1CCC[C@H]1C(=O)NCC(=O)O [H3KC36me3 peptide]
  peptide binding in pull-down: to a similar degree
Listed as H3KC36me3
  peptide binding in pull-down: binds preferentially
